This is a selection; strong and weak results do not stand in their true shares. Some results for these compounds are left out of this collection, so the calls shown say nothing about other tests. Records with an inconclusive call do not appear. Active and inactive are the calls of the source. The call rests on the fitted dose curve; in most records, active means well fitted inhibition curve with a large enough effect; inconclusive means small, poorly fitted or top-dose-only effect; inactive means no such curve, though single readings can be large or run the other way.
On the % scale 0 is the no-effect control and ±100 the full control effect.

Amino acid sequences for entries named in this document (tags omitted).
UniProt O94782, whole entry, looked up: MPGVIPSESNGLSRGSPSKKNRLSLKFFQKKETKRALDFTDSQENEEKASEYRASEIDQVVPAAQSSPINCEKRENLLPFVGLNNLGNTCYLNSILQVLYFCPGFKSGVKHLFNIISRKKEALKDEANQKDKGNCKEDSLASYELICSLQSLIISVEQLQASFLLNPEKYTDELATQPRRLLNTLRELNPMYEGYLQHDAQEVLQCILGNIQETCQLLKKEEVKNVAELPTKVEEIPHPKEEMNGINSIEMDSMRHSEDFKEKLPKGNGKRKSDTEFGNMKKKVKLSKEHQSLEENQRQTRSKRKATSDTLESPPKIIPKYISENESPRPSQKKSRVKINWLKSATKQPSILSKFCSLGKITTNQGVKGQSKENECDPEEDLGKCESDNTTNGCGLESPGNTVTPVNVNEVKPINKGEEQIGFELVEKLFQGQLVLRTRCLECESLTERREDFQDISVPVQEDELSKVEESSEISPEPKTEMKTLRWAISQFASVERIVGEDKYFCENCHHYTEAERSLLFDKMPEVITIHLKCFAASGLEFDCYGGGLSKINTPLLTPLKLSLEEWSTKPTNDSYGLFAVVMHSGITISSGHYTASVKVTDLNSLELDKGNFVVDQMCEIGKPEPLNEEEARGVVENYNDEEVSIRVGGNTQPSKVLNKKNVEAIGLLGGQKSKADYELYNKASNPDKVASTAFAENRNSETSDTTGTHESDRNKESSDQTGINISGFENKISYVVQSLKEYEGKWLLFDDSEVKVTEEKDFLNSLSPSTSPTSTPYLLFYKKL

For the assay, the target named is Ubiquitin carboxyl-terminal hydrolase 1 (Homo sapiens) (UniProt O94782). Put plainly: Inhibitors of USP1/UAF1: Primary Screen. Further: nearly all actives have a fitted effect of over 60% in size. The conditions noted are these: recombinant USP1/UAF1, Ub-Rhodamine cleavage fluorescence; at 57.1 µM (top of the series). The source says:
Deubiquitinating enzymes (DUBs) are a class of enzymes that can cleave isopeptide bond formed between the C-terminal carboxylate of ubiquitin and a lysine side-chain amino group on the target protein. Among them, ubiquitin specific proteases (USPs) constitute the largest DUB family. Human USPs are emerging as promising targets for pharmacological intervention because of their connection to a number of human diseases, including prostate, colon and breast cancer (1, 2), pediatric acute lymphoblastic leukemia (3), and familial cylindromatosis (4). The advantage of inhibiting USPs lies in the potential specificity of therapeutic intervention that can lead to better efficacy and reduce nonspecific side effects. In a collaboration between the University of Delaware and the NIH Chemical Genomics Center, a high-throughput screen assay was developed to screen for USP1/UAF1 inhibitors. This miniaturized assay has a fluorescent read-out and is used to screen the NIH Molecular Libraries Small Molecule Repository (MLSMR) in order to identify a small molecule that inhibits USP1. NIH Chemical Genomics Center [NCGC] NIH Molecular Libraries Probe Centers Network [MLPCN] MLPCN Grant: DA030552 Assay Submitter (PI): Zhihao Zhuang, University of Delaware 1. Priolo, C., et al. (2006) The isopeptidase USP2a protects human prostate cancer from apoptosis. Cancer Res 66, 8625-8632 2. Popov, N., et al. (2007) The ubiquitin-specific protease USP28 is required for MYC stability. Nat Cell Biol 9, 765-774 3. De Pitta, C., et al. (2005) A leukemia-enriched cDNA microarray platform identifies new transcripts with relevance to the biology of pediatric acute lymphoblastic leukemia. Haematologica 90, 890-898 4. Kovalenko, A., et al. (2003) The tumour suppressor CYLD negatively regulates NF-kappaB signalling by deubiquitination. Nature 424, 801-805
3 microliters of reagents (buffer in columns 3 and 4 as negative control and 1nM USP1/UAF1 complex in columns 1, 2, and 5-48) are dispensed into Greiner black solid bottom 1536-well assay plates. Compounds are then transferred via Kalypsys pin tool equipped with 1536-pin array (10nl slotted pins, V&P Scientific, San Diego, CA). Following an incubation step of 15 min at room temperature, 1ul of Ub-Rho substrate (150nM final concentration) is added to initiate the reaction. The plates are immediately centrifuged at 1000 rpm for 15 seconds, and subsequently transferred to a ViewLux high-throughput CCD imager (PerkinElmer) wherein kinetic measurements of fluorescence are acquired using 480 nm excitation/540 nm emission filter set (6 reads every 60 seconds, see Table 1). All reagents are diluted in an assay buffer consisting of 50mM HEPES (pH 7.8), 0.5mM EDTA, 0.1 mg/ml BSA, 1mM TCEP, and 0.01% Tween-20.
As for `CC(C)Oc1ccc(C(=O)NCC2(N(C)C)CCCCC2)cc1`, the activity change, negative = inhibition is inactive: 13.5%.
As to `O=C(OCCN1CCCC1)C(O)(c1ccccc1)c1ccccc1`, the activity change, negative = inhibition is inactive: -15.8%.
With `CN(C)c1cccc(C(=O)NCC2(N(C)C)CCCCC2)c1`, the activity change, negative = inhibition was inactive: -9.45%.
Regarding `C=C(C)C#CC(O)(C(=O)OC1CCN(C)CC1)c1ccccc1` (stereo not given), the activity change, negative = inhibition was inactive: -23.4%.
For the compound `COc1cc(C(=O)NCC2(N(C)C)CCCCC2)cc(OC)c1OC`, the activity change, negative = inhibition is inactive: -6.37%.
The result for `COc1ccc(Br)c(C(=O)NCC2(N3CCCCC3)CCCCC2)c1` reads inactive: -4.85%; that for `CC(C)COc1ccc(C(=O)NCC2(N(C)C)CCCCC2)cc1`, inactive: -16.3%; that for `COc1cccc(C(=O)NCC2(N3CCOCC3)CCCCC2)c1`, inactive: -18%.
Turning to `O=C(OC1CN2CCC1CC2)C(CO)(c1ccccc1)c1ccccc1` (stereo not given), the activity change, negative = inhibition was inactive: 3.98%.
The result for `O=C(NCC1(N2CCCCC2)CCCCC1)c1cccc(Cl)c1` reads inactive: -3.19%.
Consider `COc1cccc(C(=O)NCC2(N3CCCCC3)CCCCC2)c1`, for which the activity change, negative = inhibition is inactive: -6.48%.
Then `COc1ccc(Cl)cc1C(=O)NCC1(N(C)C)CCCCC1`, with inactive: -7.83%; and `COc1ccc(C(=O)NCC2(N(C)C)CCCCC2)cc1Cl`, with inactive: -3.31%; and `COc1cc(C(=O)NCC2(N(C)C)CCCCC2)c([N+](=O)[O-])cc1OC`, with inactive: -6.55%.
Regarding `CN(C)C1(CNC(=O)c2ccc(Br)cc2)CCCCC1`, the activity change, negative = inhibition was inactive: -13.8%.
With `COc1ccc(C(=O)NCC2(N(C)C)CCCCC2)cc1`, the activity change, negative = inhibition was inactive: -6.4%.
In the case of `CCOc1cccc(C(=O)NCC2(N(C)C)CCCCC2)c1`, the activity change, negative = inhibition was inactive: -16.3%.
Then `Cc1cc(C(=O)NCC2(N3CCCCC3)CCCCC2)ccc1[N+](=O)[O-]`, with inactive: -22.5%; and `CCN1CCCC(OC(=O)C2(O)c3ccccc3C=Cc3ccccc32)C1` (stereo not given), with inactive: -8.79%.
Take `O=C(NCC1(N2CCCCC2)CCCCC1)c1cccc(Br)c1`: the activity change, negative = inhibition was inactive: -24.2%.
Take `C=CCN1CCN(CCOC(=O)C(O)(c2ccccc2)c2ccccc2)CC1`: the activity change, negative = inhibition is inactive: -11.4%.
The result for `O=C(NCC1(N2CCCCC2)CCCCC1)c1cc(F)c(F)cc1Cl` reads inactive: -21.1%.
The result for `CCCCOc1ccccc1C(=O)NCC1(N(C)C)CCCCC1` reads inactive: -29.5%; that for `CN(C)C1(CNC(=O)c2ccccc2[N+](=O)[O-])CCCCC1`, inactive: -17%; that for `Cc1ccccc1C(=O)NCC1(N2CCCCC2)CCCCC1`, inactive: -16.2%.
Then `CN(C)C1CCCC1OC(=O)C(O)(c1ccccc1)c1ccccc1` (stereo not given), with inactive: -18.8%; and `CN(C)c1ccc(C(=O)NCC2(N(C)C)CCCCC2)cc1`, with inactive: -3%; and `Cc1ccc(C(=O)NCC2(N3CCCCC3)CCCCC2)cc1`, with inactive: 2.73%.
As to `CN(C)C1(CNC(=O)c2ccccc2F)CCCCC1`, the activity change, negative = inhibition is inactive: -26.9%.
`CN(C)C1(CNC(=O)c2cccc(Cl)c2)CCCCC1`: the activity change, negative = inhibition is inactive: -14.1%.
Consider `CCN(CC)CC(C)C(C)OC(=O)C(O)(c1ccccc1)c1ccccc1` (stereo not given), for which the activity change, negative = inhibition was inactive: -3.19%.
For the compound `COc1cc(SC)ccc1C(=O)NCC1(N(C)C)CCCCC1`, the activity change, negative = inhibition is inactive: -3.73%.
`CC(C)N1C(=O)CC2(CCN(CCOC(=O)C(O)(c3ccccc3)c3ccccc3)CC2)C1=O`: the activity change, negative = inhibition was inactive: -8.4%.
Turning to `CN1[C@@H]2CC[C@H]1CC(OC(=O)C(O)(c1ccccc1)c1ccccc1)C2` (stereo not given in full), the activity change, negative = inhibition is inactive: -13%.
Turning to `O=C(NCC1(N2CCCCC2)CCCCC1)c1cc([N+](=O)[O-])ccc1Cl`, the activity change, negative = inhibition is inactive: -11.2%.

Values taken from PubChem BioAssay AID743255 (National Center for Advancing Translational Sciences (NCATS), 2014).
